For one compound, IC50 results are on record in US20130052281A1, “NOVEL COMPOUNDS” (Takeda Pharmaceutical Company Limited, priority 2011, published 2013).

Chains of the proteins cited; added tags and fusions are not shown. Lines headed by an entry give the natural chain unless they say otherwise; changes in a name come on top.
UniProt P14920: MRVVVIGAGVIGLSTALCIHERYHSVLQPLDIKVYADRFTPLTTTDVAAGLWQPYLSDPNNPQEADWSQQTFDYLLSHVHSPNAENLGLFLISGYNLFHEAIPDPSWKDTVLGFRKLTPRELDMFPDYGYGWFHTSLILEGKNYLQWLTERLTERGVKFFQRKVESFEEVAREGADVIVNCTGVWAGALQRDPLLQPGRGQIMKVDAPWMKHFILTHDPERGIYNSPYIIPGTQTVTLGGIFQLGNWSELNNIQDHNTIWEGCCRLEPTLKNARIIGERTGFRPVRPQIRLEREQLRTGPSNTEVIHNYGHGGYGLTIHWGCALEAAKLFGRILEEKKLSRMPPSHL

This assay has as its target Human DAAO enzyme (Homo sapiens, UniProt P14920). The assay can be described thus: In Vitro DAAO Enzyme Assay (Amplex Red detection of H2O2 from D-Serine). In kind it is biochemical. The following applies: inhibition of DAAO activity in the presence of 10 mM D-Serine; 60 minutes at 25° C.; ten point dose-response. The procedure: The Km of D-Serine was measured for each enzyme batch to maintain consistency; this Km was used in subsequent assays.
On the day of the assay compounds were serially diluted in DMSO before being diluted 1:20 with assay buffer (20 mM Tris ph 7.4). […] Finally 5 μl ‘Amplex’ red reagent (Invitrogen) was added to all wells as per manufacturer's protocol. The plate was incubated for 60 minutes in the dark at 25° C. and the fluorescence in each well was measured in the Envision plate reader.
Concentration response curves were generated using the average of duplicate wells for each data point and analyzed using non-linear regression and four parameter curve fit.

The structures appear in SMILES notation.

Usually IC50 stands for the concentration that inhibits the measured activity by half. For `O=c1[nH]nc(CCc2ccc(C(F)(F)F)cn2)cc1O` [Example 3, 4-Hydroxy-6-{2-[5-(trifluoromethyl)pyridin-2-yl]ethyl}pyridazin-3(2H)-one], the IC50 worked out at 0.021 µM.
